Binding of CDR-mutated scFvs to a peptide of the spike HR2 region

Binding partner: SARS-CoV-2 spike HR2 peptide, sequence PDVDLGDISGINAS.

Parent: Ab-95, a human scFv built as VH, a 15-residue (Gly4Ser)3 linker, VL. Only the CDRs of the light chain vary.
VH: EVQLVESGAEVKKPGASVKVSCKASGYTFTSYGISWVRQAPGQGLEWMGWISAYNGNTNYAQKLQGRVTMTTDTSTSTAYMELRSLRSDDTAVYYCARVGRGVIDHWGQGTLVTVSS
VL: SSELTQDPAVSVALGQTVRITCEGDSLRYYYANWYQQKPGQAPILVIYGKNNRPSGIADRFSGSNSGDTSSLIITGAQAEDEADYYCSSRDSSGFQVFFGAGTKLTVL

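In library AAYL52, one, two or three CDR residues were substituted; doubles and triples were drawn at random. The assay is AlphaSeq: two haploid yeast populations carry antibody and antigen on their surface. The frequency of each diploid, read from paired DNA barcodes, reflects how well the two displayed proteins bind. Each replicate has its own calibration line, from reference interactions of the BCL2 family. There are three technical replicates.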

Changes read parent residue, position, new residue, counted from the first residue of the VL shown. Numbers give log10(Kd / nM), so 0 is 1 nM and 3 is 1 µM. Smaller is tighter. A mean of the replicates is given; it leaves out those without a signal. "n.d." marks a missing value. The strain was present, yet no cells mated with the target were sequenced in that replicate, which points to weak or no binding.

changes	replicates, log10 nM	mean, log10 nM	control signals
Y29K/S55T/F98G	3.79 3.14 2.77	3.23	3/9 (4.14)
E23T/N52I/S93L	3.08 2.94 2.55	2.86	3/9 (3.01)
Y29K/D91Y/G94P	3.27 n.d. n.d.	3.27	1/9 (4.60)
Y31H/R53T/P54T	2.67 n.d. 2.83	2.75	2/9 (2.92)
Y31P/S93F/G94I	1.56 2.07 1.84	1.82	0/9
N33Q/G49K/S89V	4.66 4.43 n.d.	4.54	2/9 (3.54)
E23M/R53F/Q96N	4.96 5.91 n.d.	5.43	2/9 (3.98)
R90T/D91N/F95I	n.d. 3.85 2.26	3.06	1/9 (4.17)
D25M/S55I/S93H	n.d. n.d. n.d.	n.d.	3/9 (4.55)
G49Q/D91L/S93M	3.06 4.17 n.d.	3.61	1/9 (4.64)
D25S/A32F/K50F	3.87 n.d. n.d.	3.87	0/9
D25C/Y29L/R90D	n.d. n.d. n.d.	n.d.	2/9 (3.54)
F95S/Q96F	2.87 3.05 4.37	3.43	1/9 (3.49)
D25E/P54H/V97R	4.62 3.20 4.03	3.95	1/9 (3.82)
N51T/P54F/S88K	n.d. n.d. n.d.	n.d.	1/9 (3.08)
D25K/Y29N/S93G	1.85 1.74 1.42	1.67	7/9 (4.22)
S55P/S89A/G94Y	3.31 3.29 1.95	2.85	7/9 (3.99)
E23I/S92I/F98L	3.06 n.d. n.d.	3.06	0/9
N33P/G49M/R90Y	4.54 n.d. 3.38	3.96	3/9 (4.09)
G24L/S93C/F98M	n.d. n.d. n.d.	n.d.	0/9
L27H/R90K/G94T	n.d. n.d. 4.33	4.33	3/9 (4.02)
K50Q/N51Q	2.78 4.42 n.d.	3.60	0/9
K50Q/N52K/S92M	3.19 2.19 2.28	2.56	2/9 (3.17)
G24I/G49W/G94W	4.03 5.56 n.d.	4.80	6/9 (3.70)
S55G/R90G/Q96F	n.d. 4.27 4.22	4.25	1/9 (4.70)
S26F/S88I/D91V	3.28 3.05 n.d.	3.17	2/9 (4.24)
R28D/R90Y/G94T	4.40 2.83 2.71	3.31	2/9 (3.99)
G24T/S55Y/S92V	4.14 3.66 3.17	3.66	3/9 (3.49)
N52A/R53P/Q96M	4.14 n.d. n.d.	4.14	2/9 (3.49)
L27T/D91L/G94H	3.93 5.47 3.76	4.39	5/9 (4.24)
K50S/S89I/R90K	3.00 3.08 3.76	3.28	2/9 (4.25)
P54Y/S88P/S89W	n.d. 5.02 n.d.	5.02	0/9
S88G/Q96S/F98H	2.60 2.85 3.32	2.93	2/9 (3.55)
D25Q/N51A/Q96L	2.56 2.95 2.91	2.80	3/9 (3.83)
D25T/N52S/S92P	2.31 2.27 1.89	2.15	3/9 (3.88)
Y29D/P54W/S88P	n.d. n.d. n.d.	n.d.	0/9
Y30V/N51P/P54E	4.61 n.d. n.d.	4.61	5/9 (3.80)
Y29S/S92V/V97S	n.d. n.d. n.d.	n.d.	2/9 (3.64)
L27S/P54Q/D91Y	n.d. n.d. n.d.	n.d.	1/9 (3.95)
Y29A/G49W/F95V	4.84 4.82 n.d.	4.83	6/9 (4.14)
D25S/S26D/V97W	3.83 n.d. 3.48	3.65	1/9 (3.70)
N51Q/P54V/S55C	4.41 n.d. n.d.	4.41	1/9 (3.38)
N33S/D91F/Q96H	3.60 3.58 4.25	3.81	1/9 (2.97)
R28V/S93N/V97W	n.d. n.d. n.d.	n.d.	0/9
Y30M/K50N/Q96R	3.36 3.23 n.d.	3.29	2/9 (4.37)
A32D/G49N/S93T	5.39 n.d. n.d.	5.39	5/9 (4.14)
L27Q/S88G	3.65 4.24 4.30	4.07	6/9 (3.72)
S55G/G94M/F98A	2.97 2.79 2.91	2.89	2/9 (4.52)
G24I/F95V/V97Q	n.d. 2.78 3.48	3.13	2/9 (3.69)
E23P/R28Q/V97N	2.62 5.00 3.56	3.73	1/9 (4.47)

Repeated from above, the 6 best binders with a signal in all replicates:

changes	replicates, log10 nM	mean, log10 nM	control signals
D25K/Y29N/S93G	1.85 1.74 1.42	1.67	7/9 (4.22)
Y31P/S93F/G94I	1.56 2.07 1.84	1.82	0/9
D25T/N52S/S92P	2.31 2.27 1.89	2.15	3/9 (3.88)
K50Q/N52K/S92M	3.19 2.19 2.28	2.56	2/9 (3.17)
D25Q/N51A/Q96L	2.56 2.95 2.91	2.80	3/9 (3.83)
S55P/S89A/G94Y	3.31 3.29 1.95	2.85	7/9 (3.99)

Empty control strains, which show no peptide, gave a signal in 28% of pairings with library AAYL52; the median was 3.91 and 95% of these signals were weaker than 2.90. No background was subtracted. For each scFv, signals with the empty controls are counted beside the result, with their mean in brackets. For reference, the parent read 2.31 as the reference entry and 2.25 as a member of this library.

The measurements come from Engelhart et al. 2022 (doi:10.1038/s41597-022-01779-4) through the FLAb antibody collection.